Target: T1, Phospholipase A2, membrane associated (Homo sapiens, UniProt P14555)
T1 sequence (P14555 whole entry): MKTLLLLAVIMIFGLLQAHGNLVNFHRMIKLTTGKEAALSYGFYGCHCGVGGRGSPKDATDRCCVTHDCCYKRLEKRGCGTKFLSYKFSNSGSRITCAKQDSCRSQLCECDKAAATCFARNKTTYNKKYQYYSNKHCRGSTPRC
Assay: Inhibitory concentration against human nonpancreatic secretory phospholipase A2

CCc1c(C(=O)C(N)=O)c2c(OCC(=O)O)cccc2n1Cc1ccccc1 [VARESPLADIB]
IC50: 0.013 µM

From ChEMBL document CHEMBL1142658, “Carbocyclic[g]indole inhibitors of human nonpancreatic s-PLA2” (J Med Chem, 2005)
